Three compounds from patent US8742106B2 (Novartis AG, priority 2009, dated 2014) can be followed below.

By UniProt entry, the sequences of proteins in these tests, tags left out.
UniProt O43613, whole entry: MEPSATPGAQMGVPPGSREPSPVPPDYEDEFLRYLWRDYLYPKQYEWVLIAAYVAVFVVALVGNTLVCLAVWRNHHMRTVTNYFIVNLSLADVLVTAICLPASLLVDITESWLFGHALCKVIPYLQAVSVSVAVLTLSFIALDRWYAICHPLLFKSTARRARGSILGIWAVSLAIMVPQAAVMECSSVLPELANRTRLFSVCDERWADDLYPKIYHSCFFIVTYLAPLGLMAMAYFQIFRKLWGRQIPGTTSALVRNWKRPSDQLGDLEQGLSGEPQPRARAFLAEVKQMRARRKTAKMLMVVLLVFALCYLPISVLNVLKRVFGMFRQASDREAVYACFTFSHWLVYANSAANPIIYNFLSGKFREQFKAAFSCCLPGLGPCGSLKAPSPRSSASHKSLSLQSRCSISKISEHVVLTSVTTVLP
UniProt O43614, whole entry: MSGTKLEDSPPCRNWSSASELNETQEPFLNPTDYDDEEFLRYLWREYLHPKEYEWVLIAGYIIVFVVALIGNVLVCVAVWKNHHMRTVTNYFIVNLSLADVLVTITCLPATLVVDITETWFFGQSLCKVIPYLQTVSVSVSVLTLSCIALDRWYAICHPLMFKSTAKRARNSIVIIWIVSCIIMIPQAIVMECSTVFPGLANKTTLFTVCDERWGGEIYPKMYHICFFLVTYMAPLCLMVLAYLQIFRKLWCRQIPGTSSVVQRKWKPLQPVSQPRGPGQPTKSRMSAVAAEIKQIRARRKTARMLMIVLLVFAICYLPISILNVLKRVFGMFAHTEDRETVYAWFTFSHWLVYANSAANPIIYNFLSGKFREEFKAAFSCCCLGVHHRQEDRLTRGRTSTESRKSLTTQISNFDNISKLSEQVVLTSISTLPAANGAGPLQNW

As a reminder, the inhibition is the share of the control response that was lost under treatment. One may read the Kd as the constant that tells how readily two partners part at equilibrium. Usually Ki stands for the dissociation constant of the complex between target and ligand, obtained from inhibition or displacement.

The target in assay [1] is T1, human orexin 1 receptors (Homo sapiens (Human), UniProt O43613). As to the kind of experiment: Calcium Accumulation in Cells (FLIPR), antagonism of orexin A. It counts as cell-based. To be noted: for Ki: antagonism of orexin A, Cheng-Prusoff corrected, read-out: FLIPR hOx1R Ki. The protocol: (§1) Calcium Accumulation in Cells (FLIPR):
Cells expressing human orexin 1 or human orexin 2 receptors, were seeded at 8,000 cells/well in 384 well black-walled clear bottom, poly-D-lysine coated plates. After 24 h, the medium was removed and cells were washed once with phosphate buffered saline and serum-deprived overnight in assay buffer (130 mM NaCl, 5.4 mM KCl, 1.8 mM CaCl2, 0.8 mM MgSO4, 0.9 mM NaH2PO4, 25 mM glucose, 20 mM HEPES, pH 7.4) containing bovine serum albumin (1% w/v).
On the day of the experiment, the cells seeded in black plates were treated with assay buffer containing the Ca^2+ sensitive fluorescent dye Fluo4-AM (2 μM), and probenecid (0.1 mM). After 1 h plates were washed twice with, and resuspended in, assay buffer containing probenecid (0.1 mM) using a multi plate washer. The plates were placed into a FLIPR II (Fluorometric Imaging Plate Reader, Molecular Devices, Sunnyvale, Calif., USA) and baseline fluorescence (fluorescence light units, FLU) was measured (5 measurements, 2 S each; laser excitation 488 nm at 0.6-1 W, CCD camera exposure 0.4 s) before addition of buffer alone (basal) or containing test compounds (either compound of formula (I) or (I′) alone, agonist alone or agonist in the presence of various concentrations of compounds of formula (I) or (I′)). Fluorescence measurements were then continued every 1 S for 120 S followed by every 4 S for 240 S.
(§2) The measurements were typically made in two sequences:
(§3) In the first round, compounds of formula (I) or (I′) were tested alone, to detect possible agonist activity. Compounds of formula I or I′ were tested usually in a concentration range from 10^−9 M to 10^−5 M.
(§4) In the second round, performed one hour later (to allow for equilibration), Orexin A was tested either in the absence (calibration curves, Orexin A agonist controls) or in the presence of compounds of formula (I) or (I′) to determine antagonism.

Assay [2] addresses T2, human orexin 2 receptors (Homo sapiens (Human), UniProt O43614). In words: Radioligand Binding Assay I ([125I]orexin A competition, cell membranes). The conditions noted are these: read-out: binding I hOx2R Kd. The protocol:
(§5) Radioligand Binding Assay I
(§6) For crude cell membrane preparations, cells (CHO, Chinese hamster ovary or HEK, human embryonic kidney) expressing human orexin 1 or human orexin 2 receptors, were washed with HEPES (10 mM, pH 7.5), scraped off the culture plates with the same buffer, and centrifuged at 4° C. for 5 min at 2500×g. The cell pellet was either stored at −80° C. or used directly. Before the experiments, cell membranes were re-suspended in binding assay buffer (10 mM HEPES, 0.5% (w/v) bovine serum albumin, pH 7.5) by homogenisation with a Polytron homogeniser at 50 Hz for 20 s. Cell membranes were also used as made available by commercial providers.
(§7) In initial saturation experiments (to calculate Bmax), cell homogenates (150 μl) were incubated with 25-300 pM of the radioligand ([^125I]orexin A, 50 μl), 8 concentrations in triplicates in the presence or absence Orexin A (1 μM, 50 μl) to define non specific binding. Bound radioactivity was measured, and data were analysed with the program XLFIT or Graphpad Prism. Protein concentration was determined according to the Bradford/BioRad Protein Assay Kit. […]

For assay [3], the target named is T1, human orexin 1 receptors. Described as above. The conditions noted are these: read-out: binding I hOx1R Kd. The protocol: as §5, §6, §7
For assay [4], the target named is T2, human orexin 2 receptors. As to the kind of experiment: Calcium Accumulation in Cells (FLIPR), antagonism of orexin A. The class given is cell-based. The conditions noted are these: Cheng-Prusoff corrected, read-out: FLIPR hOx2R Ki. The protocol:
as §1
Cells expressing human orexin 1 or human orexin 2 receptors, were seeded at 8,000 cells/well in 384 well black-walled clear bottom, poly-D-lysine coated plates.
On the day of the experiment, the cells seeded in black plates were treated with assay buffer containing the Ca^2+ sensitive fluorescent dye Fluo4-AM (2 μM), and probenecid (0.1 mM). After 1 h plates were washed twice with, and resuspended in, assay buffer containing probenecid (0.1 mM) using a multi plate washer. […] Fluorescence measurements were then continued every 1 S for 120 S followed by every 4 S for 240 S.
as §2, §3, §4

Each structure is given as a SMILES string.

With `Cc1n[nH]c(C)c1[C@@H](C)NC(=O)COc1cc(C(F)(F)F)c2c(-c3ccccc3)nn(C)c2n1` [Example 1.62, (R)-N-(1-(3,5-dimethyl-1H-pyrazol-4-yl)ethyl)-2-(1-methyl-3-phenyl-4-(trifluoromethyl)-1H-pyrazolo[3,4-b]pyridin-6-yloxy)acetamide], on human orexin 1 receptors [1] (measured at a concentration of 10 μM of compound, read-out: FLIPR hOx1R % inhibition value), the inhibition at 10 µM is less than 10%.

As for `Cc1n[nH]c(C)c1C(C)NC(=O)COc1cc(C(F)(F)F)c2c(-c3ccccc3)nn(C)c2n1` (stereo not shown) [Example 1.38, N-(1-(3,5-dimethyl-1H-pyrazol-4-yl)ethyl)-2-(1-methyl-3-phenyl-4-(trifluoromethyl)-1H-pyrazolo[3,4-b]pyridin-6-yloxy)acetamide], the results for the Kd at human orexin 2 receptors [2] and on human orexin 1 receptors [3] were 16 nM and 6 nM, respectively. Besides, the Ki is 3 nM at human orexin 2 receptors [4] and 4 nM on human orexin 1 receptors [1].

Regarding `Cc1n[nH]c(C)c1[C@H](C)NC(=O)COc1cc(C(F)(F)F)c2c(-c3ccccc3)nn(C)c2n1` [Example 1.6, (S)—N-(1-(3,5-dimethyl-1H-pyrazol-4-yl)ethyl)-2-(1-methyl-3-phenyl-4-(trifluoromethyl)-1H-pyrazolo[3,4-b]pyridin-6-yloxy)acetamide], the inhibition constant (Ki) on human orexin 2 receptors [4] came to 2 nM; on human orexin 1 receptors [1], 5 nM.
